Measured values published in PubChem BioAssay (NCATS).
Values joined by “and” are separate entries in the source; they are usually repeats but may differ in a detail not shown here. Identical values can stand only once. The entries are a selection whose mix differs from that of the whole data set. Results filed as inconclusive are left out. Active and inactive are the calls of the source. Unless noted, the call rests on the fitted dose curve; in most records, active means well fitted curve in the direction sought with a large enough effect; inconclusive means small, poorly fitted or top-dose-only effect, or another doubt; inactive means no such curve, though single readings can be large; an effect the other way counts as inactive or inconclusive.

Legend:
[1] = qHTS Assay for Identifying Gametocytocidal Compounds (AID 743244);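 further: on the % scale 0 is the no-effect control and ±100 the full control effect; actives lower the fluorescent signal which means gametocytes are killed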; settings: P. falciparum 3D7 stage III-V gametocytes, alamarBlue, 72 h; stronger effect = lower value
[2] = qHTS assay to identify small molecule inhibitors of chordoma cells - UCH-2 (AID 1259356); settings: UCH-2 chordoma viability, CellTiter-Glo ATP luminescence, 48 h; at 46.1 µM (top of the series) unless noted; further: on the % scale 0 is the no-effect control and ±100 the full control effect
[3] = P-glycoprotein substrates identified in KB-8-5-11 adenocarcinoma cell line, qHTS therapeutic library screen (AID 1346987); settings: KB-8-5-11 (P-gp overexpressing) viability, CellTiter-Glo, 72 h; further: on the % scale 0 is the no-effect control and ±100 the full control effect; nearly all actives have a fitted effect of over 65% in size
Procedure, shortened: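 In this qHTS, P-gp-rich KB-8-5-11 cells received library compounds across a concentration range. Viability was quantified by luminescence after 72 h at 37 degree C.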

[4] = qHTS of pediatric cancer cell lines to identify multiple opportunities for drug repurposing: Primary screen for TC32 cells (AID 1347089); settings: TC32 Ewing sarcoma viability, CellTiter-Glo luminescence, 48 h; at 45.8 µM (top of the series) unless noted; further: on the % scale 0 is the no-effect control and ±100 the full control effect; nearly all actives have a fitted effect of over 60% in size
Procedure, shortened: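 TC32 cells, 500-1,000/well in growth medium, compound-treated 48 h at 37 °C; viability from CellTiter-Glo luminescence. Primary screen: MIPE 11-point (0.78 nM–46 µM final), NPC 8-point (0.59 nM–46 µM final); confirmatory at 11-point dilutions.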

[5] = qHTS of pediatric cancer cell lines to identify multiple opportunities for drug repurposing: Primary screen for SJ-GBM2 cells (AID 1347091); settings: SJ-GBM2 viability, CellTiter-Glo luminescence, 48 h; at 46 µM (top of the series) unless noted;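 further: plate controls were DMSO neutral control for no effect and bortezomib for full effect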
Procedure, shortened: (§1)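 Eight- or eleven-point concentration series, 48 h treatment at 37 degrees C in growth media; readout CellTiter-Glo luminescence. Potency and efficacy were taken from the concentration-response curves.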

[6] = qHTS of pediatric cancer cell lines to identify multiple opportunities for drug repurposing: Primary screen for A673 cells (AID 1347092); settings: A673 Ewing sarcoma viability, CellTiter-Glo ATP luminescence, 48 h; at 46 µM (top of the series) unless noted; further: on the % scale 0 is the no-effect control and ±100 the full control effect; nearly all actives have a fitted effect of over 45% in size
Procedure, shortened: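 A673 cells (500-1,000 cells/well) were treated 48 hours at 37 degrees C with compounds at 11-point (0.78 nM to 46 µM) or 8-point (0.59 nM to 46 µM) dilutions. Viability read by CellTiter-Glo luminescence; concentration-response curves fitted.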

[7] = qHTS of pediatric cancer cell lines to identify multiple opportunities for drug repurposing: Primary screen for SK-N-MC cells (AID 1347093); settings: SK-N-MC viability, CellTiter-Glo luminescence, 48 h; series mostly up to 46 µM;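 further: plate controls were DMSO neutral control for no effect and bortezomib for full effect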
[8] = qHTS assay for small molecule agonists of the antioxidant response element (ARE) signaling pathway measured by Nrf2-dependant transcriptional activity - cell viability counter screen (AID 720653; active means well fitted curve in the direction sought with a large enough effect in the repeat runs; an effect the other way counts as inactive or inconclusive; further: on the % scale 0 is the no-effect control and ±100 the full control effect); settings: ARE-bla HepG2 viability, CellTiter-Glo ATP luminescence, 16 h; stronger effect = lower value
Procedure, shortened: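 ARE-bla HepG2 cells (2,000/well) rested 5 hrs at 37C/5% CO2, then exposed to compounds in DMSO for 16 hrs. Viability was read in the same wells as intracellular ATP by luminescence, 30 min at room temperature after reagent addition.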

[9] = qHTS assay for cell viability of HEK293 cells (AID 743288); settings: ATP luminescence (CellTiter-Glo), 18 h, stronger effect = lower value; further: on the % scale 0 is the no-effect control and ±100 the full control effect; nearly all actives have a fitted effect of over 50% in size
Procedure, shortened: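 Steps: plate 2,000 parental HEK293 cells per well; incubate ≥5 h, 37 C; add compounds in DMSO; incubate 18 h, 37 C; add CellTiter-Glo; wait 30 min at room temperature; read luminescence.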

[10] = qHTS assay for cell viability of the p53RE-bla HCT-116 cell line (AID 743292); settings: p53RE-bla HCT-116 viability, ATP luminescence, 16 h; at 95 µM (top of the series); further: on the % scale 0 is the no-effect control and ±100 the full control effect; nearly all actives have a fitted effect of over 55% in size
Procedure, shortened: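 Intracellular ATP of p53RE-bla HCT-116 cells measured by luciferase luminescence following 16 h compound incubation at 37 C; DMSO-only wells served as vehicle controls.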

[11] = qHTS of pediatric cancer cell lines to identify multiple opportunities for drug repurposing: Primary screen for DAOY cells (AID 1347090); settings: DAOY medulloblastoma viability, CellTiter-Glo luminescence, 48 h; at 92.7 µM (top of the series) unless noted;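 further: plate controls were DMSO for no effect and bortezomib for full effect; nearly all actives have a fitted effect of over 55% in size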
Procedure, shortened: as §1

[12] = qHTS of pediatric cancer cell lines to identify multiple opportunities for drug repurposing: Primary screen for BT-37 cells (AID 1347094); settings: BT-37 viability, CellTiter-Glo luminescence, 48 h; at 57.3 µM (top of the series) unless noted;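 further: plate controls were DMSO for no effect and bortezomib for full effect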
Procedure, shortened: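 ATP-based luminescence (CellTiter-Glo) quantifies viability after a 48-hour exposure. Compounds are dosed across 8 or 11 final concentrations; DMSO and 2.3 µM bortezomib serve as controls.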

[13] = qHTS of pediatric cancer cell lines to identify multiple opportunities for drug repurposing: Primary screen for NB-EBc1 cells (AID 1347095); settings: NB-EBc1 neuroblastoma viability, CellTiter-Glo luminescence, 48 h; at 92.7 µM (top of the series) unless noted;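 further: plate controls were DMSO neutral control for no effect and bortezomib for full effect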
[14] = P-glycoprotein substrates identified in KB-3-1 adenocarcinoma cell line, qHTS therapeutic library screen (AID 1346986); settings: KB-3-1 parental cells viability, CellTiter-Glo, 72 h; at 44.5 µM (top of the series); further: nearly all actives have a fitted effect of over 60% in size
Procedure, shortened: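 Using luminescence to quantify ATP, parental and P-gp-overexpressing KB cells were compared after 72 h compound titration. KB-8-5-11 was also run with the P-gp inhibitor tariquidar.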

C/C1=C2N=C(/C=C3N=C(/C(C)=C4\[N-][C@@](C)([C@@H]5N=C1[C@](C)(CCC(=O)NC[C@@H](C)OP(=O)([O-])O[C@H]1[C@@H](O)[C@@H](n6cnc7cc(C)c(C)cc76)O[C@@H]1CO)[C@H]5CC(N)=O)[C@@](C)(CC(N)=O)[C@@H]4CCC(N)=O)[C@@](C)(CC(N)=O)[C@@H]\3CCC(N)=O)C(C)(C)[C@@H]/2CCC(N)=O.[C-]#N.[Co+3]
inactive: max response [1] 11.6% | activity change, negative = inhibition [2] 3.81% [at 20.6 µM] | activity change, negative = cytotoxicity ([3]; at 17.3 µM (top of the series)) -6.57% | activity change, negative = cytotoxic [4] -13.3% | activity change, negative = cytotoxic [5] -4.12% | activity change, negative = cytotoxic [6] -18.6% | Potency [7]

CC(C)N(CCCl)C(C)C
inactive: max response [1] -2.13% | activity change, negative = cytotoxicity ([3]; at 44.5 µM (top of the series)) -2.99%

Cc1ccc([N+](=O)[O-])cc1[N+](=O)[O-]
inactive: max response [8] 0.987% and 8.02% | max response [9] -9.46% and 1.2% | activity change, negative = cytotoxicity [10] 4.43% and -4.41%

OCCSCCO
inactive: max response [1] 5.93% | activity change, negative = inhibition [2] -3.42% | activity change, negative = cytotoxicity ([3]; at 44.5 µM (top of the series)) 17.1% | activity change, negative = cytotoxic [4] 4.07% | activity change, negative = cytotoxic [11] 3.5% [at 46 µM] | activity change, negative = cytotoxic [5] 26.2% | activity change, negative = cytotoxic [6] -2.16% | Potency [7] | activity change, negative = cytotoxic [12] 14.5% | activity change, negative = cytotoxic [13] 26.8% [at 46 µM]

CCC(C)(OO)OOC(C)(CC)OO (centres undefined)
inactive: max response [8] 6.94% and 0.195% | max response [9] -1.31% and 1.13% | activity change, negative = cytotoxicity [10] -6.09% and -3.13%

CC(C)OP(=O)(F)OC(C)C
inactive: max response [1] -7.14% | activity change, negative = inhibition [2] -0.995% | activity change, negative = cytotoxicity ([3]; at 44.5 µM (top of the series)) 3.28%

O=[N+]([O-])OCC(CO[N+](=O)[O-])(CO[N+](=O)[O-])CO[N+](=O)[O-]
inactive: max response [1] 5.49% | activity change, negative = inhibition [2] 0.819% | activity change, negative = cytotoxicity ([3]; at 44.5 µM (top of the series)) 4.41%

CN(C)CCS
inactive: max response [1] -3.52% | activity change, negative = inhibition [2] -3.07% | activity change, negative = cytotoxicity ([3]; at 44.5 µM (top of the series)) 6.27%

CCOP(=O)(CC)OCC
inactive: max response [8] -4.6% | max response [9] 8.31% | activity change, negative = cytotoxicity [10] 7.95%

CCOP(=O)(CC)Oc1ccc([N+](=O)[O-])cc1 (centres undefined)
inactive: max response [1] -20.3% | outcome [14] | activity change, negative = cytotoxic [4] -14.4% | activity change, negative = cytotoxic [11] -11.8% [at 46 µM] | activity change, negative = cytotoxic [5] 41.5% | activity change, negative = cytotoxic [6] -11.7% | Potency [7] | activity change, negative = cytotoxic [12] -7.04% | activity change, negative = cytotoxic [13] 22.5% [at 46 µM]

Cc1c([N+](=O)[O-])cccc1[N+](=O)[O-]
inactive: max response [8] -8.18% and -7.81% | max response [9] -3.23% and -6.3% | activity change, negative = cytotoxicity [10] 3.16% and 4.38%
